EC50 and IC50 data for two compounds are collected here from patent US12060351B2, “Thiadiazole IRAK4 inhibitors” (Gilead Sciences, Inc., priority 2018, dated 2024).

Protein sequences, listed by entry. Tags and fused reporters are not part of them.
UniProt Q9NWZ3, whole entry: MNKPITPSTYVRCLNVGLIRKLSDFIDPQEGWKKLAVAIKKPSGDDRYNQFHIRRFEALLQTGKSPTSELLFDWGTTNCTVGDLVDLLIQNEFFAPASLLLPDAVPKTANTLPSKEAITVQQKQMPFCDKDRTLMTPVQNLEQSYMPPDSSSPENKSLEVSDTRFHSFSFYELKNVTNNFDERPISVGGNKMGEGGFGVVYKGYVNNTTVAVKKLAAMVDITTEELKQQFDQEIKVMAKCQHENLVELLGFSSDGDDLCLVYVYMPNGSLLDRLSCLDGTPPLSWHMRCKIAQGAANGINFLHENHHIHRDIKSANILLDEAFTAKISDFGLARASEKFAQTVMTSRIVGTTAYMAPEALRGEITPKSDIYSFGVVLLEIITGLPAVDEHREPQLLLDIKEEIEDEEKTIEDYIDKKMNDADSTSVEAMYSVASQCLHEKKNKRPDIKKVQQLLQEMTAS

The test system of one assay is TNFα. Description: IRAK4 Monocyte TNFα Cell Based Assay (LPS-stimulated, TR-FRET TNFα detection). The note with it: read-out: EC50 MONO TNF HTRF, human monocytes, Table 2 second part (compounds 33-343). (In general: TR-FRET usually uses a lanthanide donor and a delayed reading to cut background.)
The next assay addresses IRAK4 enzyme (Homo sapiens, UniProt Q9NWZ3). The assay can be described thus: IRAK4 Biochemical Assay (TR-FRET, STK1 KinEASE). The settings on record: read-out: IC50 IRAK4-HTBS, 500 μM ATP, Table 2 second part (compounds 33-343).

The EC50 is the midpoint of the concentration-response curve. For orientation: IC50 means the concentration needed to halve the response being measured. For `CC(=O)NC1CCC(F)(c2nnc(-c3cnc(-c4ccc5cc(C#N)cnn45)cc3NC(C)C)s2)CC1` (single isomer, unassigned) [194 Isomer 1], in the assay on TNFα, the 50% effective concentration (EC50) was 50.8 nM. The IC50 at IRAK4 enzyme was found to be 0.61 nM.

Turning to `CC(=O)NC1CCC(F)(c2nnc(-c3cnc(-c4ccc5cc(C#N)cnn45)cc3NC(C)C)s2)CC1` (single isomer, unassigned) [194 Isomer 2], the EC50 in the assay on TNFα is 40.6 nM. For the same compound, on IRAK4 enzyme, the IC50 is 0.57 nM.
